Reference: PubChem BioAssay AID1048 (The Scripps Research Institute Molecular Screening Center, 2008)
Only a part is listed here, and it is no random draw. Calls of active or inactive are those of the source. Cut-off read from the data, not from the text of the source: active = TR-FRET ratio above about 2000; inactive = the rest.

Assay: TR-FRET detection interference compounds, artefact control for PPARgamma SRC-3 recruitment agonists, biochemical, TR-FRET ratio (AID 1048)
Conditions: TR-FRET artefact counter-screen, PPARgamma/SRC-3 format; at 8 µM; active compounds read high
In the case of `N#Cc1ccc(C(=O)NCC2(N3CCCCC3)CCCCC2)cc1`, the TR-FRET ratio is reported as inactive: 1650.
For `O=C(OC1CN2CCC1CC2)C1c2ccccc2C=Cc2ccccc21` (stereo not given), the TR-FRET ratio was inactive: 1560.
For `COc1ccc(C(=O)NCC2(N3CCOCC3)CCCCC2)cc1OC`, the TR-FRET ratio was inactive: 1550.
For `COc1cc(OC)cc(C(=O)NCC2(N3CCOCC3)CCCCC2)c1`, the TR-FRET ratio was inactive: 1670.
With `CC(C)(C)OC(=O)N1CCC(Nc2ccccc2)CC1` the TR-FRET ratio was inactive: 1540.
With `CN(C)c1ccc(C(=O)NCC2(N3CCCCC3)CCCCC2)cc1` the TR-FRET ratio was inactive: 1320.
For `CCN1CCC(Nc2cccc(F)c2)CC1`, the TR-FRET ratio was inactive: 1870.
With `CCOC(=O)N1CCC(Nc2ccc(OC)cc2)CC1` the TR-FRET ratio was inactive: 1390.
In the case of `COc1ccc(C(=O)NCC2(N3CCCCC3)CCCCC2)c(OC)c1OC`, the TR-FRET ratio is reported as inactive: 1590.
With `COc1ccc(CN(CCCl)CCCl)cc1Cl` the TR-FRET ratio was inactive: 1400.
For `CN(C)c1cccc(C(=O)NCC2(N3CCCCC3)CCCCC2)c1`, the TR-FRET ratio was inactive: 1370.
With `CC(C)c1ccc(NC2CCN(C(=O)OC(C)(C)C)CC2)cc1` the TR-FRET ratio was inactive: 1520.
With `CN1CCN(CCOC(=O)C(O)(c2ccccc2)c2ccccc2)CC1` the TR-FRET ratio was inactive: 1490.
In the case of `COc1ccc(NC2CCN(C(=O)OC(C)(C)C)CC2)cc1`, the TR-FRET ratio is reported as inactive: 1540.
In the case of `O=C(NCC1(N2CCCCC2)CCCCC1)c1cccc([N+](=O)[O-])c1`, the TR-FRET ratio is reported as inactive: 1660.
